A word on the EC50: it is the concentration needed to bring the measured effect to its halfway point.

Consider one compound from publication PMC12678798, “Discovery of an allosteric binding site for anthraquinones at the human P2X4 receptor” (Nature Communications, 2025).

One experiment deals with T1, human wt P2X4 receptor (Homo sapiens, UniProt Q99571).
T1 construct: expressed in transfected cells
T1 sequence (Q99571 1-388): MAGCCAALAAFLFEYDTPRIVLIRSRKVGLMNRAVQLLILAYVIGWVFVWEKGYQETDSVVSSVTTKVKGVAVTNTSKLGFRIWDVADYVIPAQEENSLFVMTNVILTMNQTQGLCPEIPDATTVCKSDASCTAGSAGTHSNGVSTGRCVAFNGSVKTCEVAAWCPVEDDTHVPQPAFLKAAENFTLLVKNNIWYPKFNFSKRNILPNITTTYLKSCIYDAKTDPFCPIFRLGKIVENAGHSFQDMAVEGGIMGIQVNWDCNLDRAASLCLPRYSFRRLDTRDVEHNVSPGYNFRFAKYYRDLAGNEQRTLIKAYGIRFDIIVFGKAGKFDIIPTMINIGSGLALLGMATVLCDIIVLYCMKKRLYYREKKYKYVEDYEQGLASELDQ
Put plainly: ATP-induced calcium influx assay, human wt P2X4 receptor in 1321N1 astrocytoma cells. The class given is cell-based.

Experiment [1] has as its target T2, human P2X4-E307T receptor mutant (Homo sapiens, UniProt Q99571, E307T).
T2 construct: expressed in transfected cells
T2 sequence (Q99571 1-388 E307T): T1 sequence (Q99571 1-388) with E307T
Kind of experiment: ATP-induced calcium influx assay, P2X4-E307T mutant in 1321N1 astrocytoma cells. The class given is cell-based.

Experiment [2] concerns the target T3, chimeric P2X4(P2X2) receptor c10^R301-Q308 (Homo sapiens, UniProt Q99571, A304N/D302K/DEL301-301/E307T/L303I/N306T/Q308T).
T3 construct: expressed in transfected cells; gene synthesis (Geneart), pLVX-IRES-mCherry (bicistronic, mCherry not fused)
T3 sequence (Q99571 with tags, fused parts or gaps DEL301-301/D302K/L303I/A304N/N306T/E307T/Q308T): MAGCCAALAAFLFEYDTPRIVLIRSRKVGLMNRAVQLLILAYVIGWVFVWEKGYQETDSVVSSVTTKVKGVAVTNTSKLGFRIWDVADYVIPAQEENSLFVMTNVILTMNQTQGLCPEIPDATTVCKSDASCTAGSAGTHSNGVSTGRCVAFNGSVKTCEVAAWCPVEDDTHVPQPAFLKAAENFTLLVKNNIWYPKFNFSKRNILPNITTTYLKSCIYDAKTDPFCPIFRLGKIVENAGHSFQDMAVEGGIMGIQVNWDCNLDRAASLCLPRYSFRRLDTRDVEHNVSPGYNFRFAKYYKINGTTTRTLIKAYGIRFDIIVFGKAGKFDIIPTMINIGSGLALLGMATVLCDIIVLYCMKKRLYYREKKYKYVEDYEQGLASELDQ
Put plainly: ATP-induced calcium influx assay, chimeric receptor c10 in 1321N1 astrocytoma cells. The class given is cell-based.

In experiment [3] the target is T4, chimeric P2X4(P2X2) receptor c2-c5^C116-T186 (Homo sapiens, UniProt Q99571, A122H/A137L/A177Q/A181M/D121V/DEL149-175/E183P/G138D/H140L/INS118S/INS148CVPYYQGPSKTCEVFGWCPVEDGASV/INS179G/K127L/K180T/P120R/P176S/S131D/S136E/S141G/S145R/T123N/T124A/T133V/T139M/V125T/V144L).
T4 sequence (Q99571 with tags, fused parts or gaps isoform Q99571-3 INS118S/P120R/D121V/A122H/T123N/T124A/V125T/K127L/S131D/T133V/S136E/A137L/G138D/T139M/H140L/S141G/V144L/S145R/INS148[…]/P149S/A150Q/INS152G/K153T/A154M/E156P): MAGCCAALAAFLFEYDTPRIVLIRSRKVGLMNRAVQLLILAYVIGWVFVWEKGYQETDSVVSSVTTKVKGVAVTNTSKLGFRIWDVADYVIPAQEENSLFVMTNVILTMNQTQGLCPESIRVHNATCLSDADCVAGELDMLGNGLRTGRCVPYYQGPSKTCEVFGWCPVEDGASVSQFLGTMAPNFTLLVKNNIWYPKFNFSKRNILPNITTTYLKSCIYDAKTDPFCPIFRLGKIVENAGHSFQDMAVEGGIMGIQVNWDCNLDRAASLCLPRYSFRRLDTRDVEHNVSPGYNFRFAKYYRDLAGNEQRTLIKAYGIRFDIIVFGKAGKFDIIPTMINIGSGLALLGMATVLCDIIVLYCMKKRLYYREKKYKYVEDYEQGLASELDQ
Put plainly: cell-based.

Experiment [4] concerns the target T5, chimeric P2X4(P2X2) receptor c6^N208-S216 (Homo sapiens, UniProt Q99571, I209R/N208D/S216R/T211D/T212G).
T5 sequence (Q99571 1-388 N208D/I209R/T211D/T212G/S216R): T1 sequence (Q99571 1-388) with N208D, I209R, T211D, T212G, S216R
Put plainly: cell-based.

The target in experiment [5] is T6, chimeric P2X4(P2X2) receptor c7^I218-D224 (Homo sapiens, UniProt Q99571, A221E/D220H/I218T/K222A/T223S/Y219F).
T6 sequence (Q99571 1-388 I218T/Y219F/D220H/A221E/K222A/T223S): T1 sequence (Q99571 1-388) with I218T, Y219F, D220H, A221E, K222A, T223S
Put plainly: cell-based.

Experiment [6] concerns the target T7, chimeric P2X4(P2X2) receptor c8^R265-L269 (Homo sapiens, UniProt Q99571, A266P/L269E/R265L).
T7 sequence (Q99571 1-388 R265L/A266P/L269E): T1 sequence (Q99571 1-388) with R265L, A266P, L269E
Put plainly: cell-based.

The target in experiment [7] is T8, P2X4-D302I receptor mutant (Homo sapiens, UniProt Q99571, D302I).
T8 sequence (Q99571 1-388 D302I): T1 sequence (Q99571 1-388) with D302I
Put plainly: cell-based.

Experiment [8] addresses T9, P2X4-Q308T receptor mutant (Homo sapiens, UniProt Q99571, Q308T).
T9 sequence (Q99571 1-388 Q308T): T1 sequence (Q99571 1-388) with Q308T
Kind of experiment: cell-based.

The structures appear in SMILES notation. Numbering of substitutions follows the chain as printed. Read-outs that look alike come from different tables or passages of the source.

Consider `Nc1c(S(=O)(=O)O)cc(Nc2ccc(Nc3nc(Cl)nc(Nc4ccccc4S(=O)(=O)O)n3)c(S(=O)(=O)O)c2)c2c1C(=O)c1ccccc1C2=O` [Cibacron Blue], for which the EC50 on human wt P2X4 receptor turned out to be 243 nM; in experiment [4], 530 nM. For the same compound, the IC50 on human wt P2X4 receptor (wt P2X4, 1321N1 astrocytoma cells, inhibition vs ATP at its EC80, 30 min preincubation, read-out: IC50 ± SEM) was 12.1 ± 4.2 µM; on human wt P2X4 receptor (wt hP2X4, read-out: pIC50 ± SEM (n value) (converted)) it was 11 µM; in experiment [1] (1321N1 astrocytoma cells, vs ATP at its EC80, read-out: IC50 ± SEM) it was 17.8 ± 4.7 nM; in experiment [1] (read-out: pIC50 ± SEM (n value) (converted)), 16.6 nM; in experiment [2] (IC50 ± SEM, P2X4(P2X2) c10^R301-Q308, 1321N1 astrocytoma cells, vs ATP at its EC80), 4.76 ± 0.62 nM; in [2] (pIC50 ± SEM (n value), c10^R301-Q308), 5.13 nM. Besides, the IC50 is 8.99 µM in [3]; 8.6 µM in experiment [4]; 23.6 µM in experiment [5]; 20.3 µM in experiment [6] (IC50, c8^R265-L269, ATP at EC80); 17.8 µM in [6] (pIC50 ± SEM (n value), c8^R265-L269); 1420 nM in experiment [7]. Further, the IC50 in [8] (IC50, P2X4-Q308T, ATP at EC80) was 10.4 µM; in [8] (pIC50 ± SEM (n value), P2X4-Q308T), 10 µM.
